Where two headings read alike, the source gives them in different places.

This is an account of results in patent publication US8722864B2 (Nutek Pharma Ltd., priority 2010, dated 2014).

The conditions of the series: rat, tail vein IV.

For the substance acetaminophen, the “Ratio = brain concentration/plasma concentration of acetaminophen” value is on record as 0.689 (0.50 h), 1.00 (1 h), 0.649 (2 h) and 0.419 (4 h).
